Data set [1] can be described thus: Volume of distribution at steady state in male CD-1 mouse at 5 mg/kg, po or 1 mg/kg, iv measured upto 24 hrs. The class given is ADME, organism-based. Conditions: in vivo.
Data set [2] is described as follows: Selectivity ratio of IC50 for antiproliferative activity against MTAP wild type human HCT-116 cells to IC50 for antiproliferative activity against MTAP deleted human HCT-116 cells. It counts as functional.

We go through one compound from ChEMBL document CHEMBL6087483, “Discovery of Potent, Highly Selective, and Orally Bioavailable MTA Cooperative PRMT5 Inhibitors with Robust In Vivo Antitumor Activity” (J Med Chem, 2025).

`CN(C(=O)c1cc2c3c(c(N)nc2cc1F)COC3)[C@@H]1CCN(c2ccc(C#N)cc2)C1` showed a Vdss in data set [1] of 1.45 L/kg. Besides, the “Ratio IC50” value in data set [2] was determined as 127.
